Measurements as given in PubChem BioAssay AID793 (The Scripps Research Institute Molecular Screening Center, 2007).
Only a part is listed here, and it is no random draw. Some tests of the compounds listed are not included; inactive here does not mean inactive elsewhere. Activity calls are given as the source filed them. Cut-off read from the data, not from the text of the source: active = inhibition above about 17%; inactive = the rest.

Amino acid sequences for entries named in this document (tags omitted).
UniProt P49146, whole entry: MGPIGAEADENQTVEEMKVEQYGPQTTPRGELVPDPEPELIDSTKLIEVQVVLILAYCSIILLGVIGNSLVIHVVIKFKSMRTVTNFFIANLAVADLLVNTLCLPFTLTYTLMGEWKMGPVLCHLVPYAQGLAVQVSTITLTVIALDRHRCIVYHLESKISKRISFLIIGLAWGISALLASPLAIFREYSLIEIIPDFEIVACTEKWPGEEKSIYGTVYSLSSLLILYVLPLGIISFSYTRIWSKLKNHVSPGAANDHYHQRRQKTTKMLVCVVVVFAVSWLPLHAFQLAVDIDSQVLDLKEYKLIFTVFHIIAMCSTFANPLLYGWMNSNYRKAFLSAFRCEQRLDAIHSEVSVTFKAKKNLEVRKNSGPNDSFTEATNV

Target: Neuropeptide Y receptor type 2 (Homo sapiens) (UniProt P49146)
Experiment: NPY-Y2 receptor antagonists, primary screen, cell-based (AID 793);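 note: 0% = vehicle with agonist challenge and 100% = reference antagonist with challenge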
Conditions: NPY-Y2 expressing cells, antagonist mode; at 2.7 µM; stronger effect = higher value

Row | SMILES | inhibition
1 | O=C(OC1CN2CCC1CC2)C(CO)(c1ccccc1)c1ccccc1 (stereo not given) | inactive: 6.69%
2 | CN(C)c1cccc(C(=O)NCC2(N(C)C)CCCCC2)c1 | inactive: -1.31%
3 | CC(C)N1C(=O)CC2(CCN(CCOC(=O)C(O)(c3ccccc3)c3ccccc3)CC2)C1=O | inactive: 0.74%
4 | CN(C)C1CCCC1OC(=O)C(O)(c1ccccc1)c1ccccc1 (stereo not given) | inactive: 1.06%
5 | CCN1CCCC(OC(=O)C2(O)c3ccccc3C=Cc3ccccc32)C1 (stereo not given) | inactive: -0.76%
